Data reported in paper PMC5894102 (Journal of medicinal chemistry, 2017).

Settings: mouse, human

| SMILES | glucuronidation in microsomes with NADPH/UDPGA |
| --- | --- |
| NS(=O)(=O)c1ccc(Cc2c(-c3cccc(-c4ccccc4)c3)nn(-c3nc(C(=O)O)cs3)c2C2CC2)cc1 [Analog 61] | neither 61 nor 63 showed any evidence of glucuronidation |
| NS(=O)(=O)c1ccc(Cc2c(-c3cccc(-c4ccccc4)c3)nn(-c3nc(C(=O)O)cs3)c2CC2CC2)cc1 [Analog 63] | neither 61 nor 63 showed any evidence of glucuronidation |
